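How tested: cells in 96-well plates exposed to compound for 48 hours at five concentrations. Here, GI50 denotes the concentration required for 50% inhibition of growth. TGI denotes the concentration required for complete inhibition of growth.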
Tests used:
Assay in all cases: DTP human tumour cell line panel, 48 h; in the data active means GI50 below about 0.43 µM; inactive means the rest
LXFL 529 NSCLC = tested on: LXFL 529 NSCLC
U251 CNS = tested on: U251 CNS
LOX IMVI melanoma = tested on: LOX IMVI melanoma
DMS 273 small cell lung = tested on: DMS 273 small cell lung
RXF 393 renal = tested on: RXF 393 renal
HCC-2998 colon = tested on: HCC-2998 colon
SF-268 CNS = tested on: SF-268 CNS
MALME-3M melanoma = tested on: MALME-3M melanoma
EKVX NSCLC = tested on: EKVX NSCLC
786-0 renal = tested on: 786-0 renal
SNB-78 CNS = tested on: SNB-78 CNS
KM12 colon = tested on: KM12 colon
MOLT-4 leukemia = tested on: MOLT-4 leukemia
OVCAR-8 ovarian = tested on: OVCAR-8 ovarian
DMS 114 small cell lung = tested on: DMS 114 small cell lung
SW-620 colon = tested on: SW-620 colon
K-562 leukemia = tested on: K-562 leukemia
HT29 colon = tested on: HT29 colon
UACC-62 melanoma = tested on: UACC-62 melanoma
SK-MEL-5 melanoma = tested on: SK-MEL-5 melanoma
HCT-116 colon = tested on: HCT-116 colon
SK-MEL-28 melanoma = tested on: SK-MEL-28 melanoma
SF-539 CNS = tested on: SF-539 CNS
SN12C renal = tested on: SN12C renal
OVCAR-3 ovarian = tested on: OVCAR-3 ovarian
IGROV1 ovarian = tested on: IGROV1 ovarian
SNB-75 CNS = tested on: SNB-75 CNS
A549 NSCLC = tested on: A549 NSCLC
SK-MEL-2 melanoma = tested on: SK-MEL-2 melanoma
COLO 205 colon = tested on: COLO 205 colon
NCI-H460 lung = tested on: NCI-H460 lung
NCI-H23 lung = tested on: NCI-H23 lung
UO-31 renal = tested on: UO-31 renal
NCI-H322M lung = tested on: NCI-H322M lung
NCI-H522 lung = tested on: NCI-H522 lung
HOP-62 NSCLC = tested on: HOP-62 NSCLC
ACHN renal = tested on: ACHN renal
HL-60(TB) leukemia = tested on: HL-60(TB) leukemia
SR leukemia = tested on: SR leukemia
SNB-19 CNS = tested on: SNB-19 CNS
OVCAR-4 ovarian = tested on: OVCAR-4 ovarian
OVCAR-5 ovarian = tested on: OVCAR-5 ovarian
HCT-15 colon = tested on: HCT-15 colon
KM20L2 colon = tested on: KM20L2 colon
CCRF-CEM leukemia = tested on: CCRF-CEM leukemia
DLD-1 colon = tested on: DLD-1 colon
SK-OV-3 ovarian = tested on: SK-OV-3 ovarian
M19-MEL melanoma = tested on: M19-MEL melanoma
M14 melanoma = tested on: M14 melanoma
A498 renal = tested on: A498 renal
HOP-18 NSCLC = tested on: HOP-18 NSCLC

CN1C(=O)N(C)P12(Cl)N(C)C(=O)N2C
> 100 µM: TGI (LXFL 529 NSCLC) | TGI (U251 CNS) | TGI (LOX IMVI melanoma) | TGI (DMS 273 small cell lung) | TGI (RXF 393 renal) | TGI (HCC-2998 colon) | TGI (SF-268 CNS) | TGI (MALME-3M melanoma) | TGI (EKVX NSCLC) | TGI (786-0 renal) | TGI (SNB-78 CNS) | TGI (KM12 colon) | TGI (MOLT-4 leukemia) | TGI (OVCAR-8 ovarian) | TGI (DMS 114 small cell lung) | TGI (SW-620 colon) | TGI (K-562 leukemia) | TGI (HT29 colon) | TGI (UACC-62 melanoma) | TGI (SK-MEL-5 melanoma) | TGI (HCT-116 colon) | TGI (SK-MEL-28 melanoma) | TGI (SF-539 CNS) | TGI (SN12C renal) | TGI (OVCAR-3 ovarian) | TGI (IGROV1 ovarian) | TGI (SNB-75 CNS) | TGI (A549 NSCLC) | TGI (SK-MEL-2 melanoma) | TGI (COLO 205 colon) | TGI (NCI-H460 lung) | TGI (NCI-H23 lung) | TGI (UO-31 renal) | TGI (NCI-H322M lung) | TGI (NCI-H522 lung) | TGI (HOP-62 NSCLC) | TGI (ACHN renal) | TGI (HL-60(TB) leukemia) | TGI (SR leukemia) | TGI (SNB-19 CNS) | TGI (OVCAR-4 ovarian) | TGI (OVCAR-5 ovarian) | TGI (HCT-15 colon) | TGI (KM20L2 colon) | TGI (CCRF-CEM leukemia) | TGI (DLD-1 colon) | TGI (SK-OV-3 ovarian) | TGI (M19-MEL melanoma) | TGI (M14 melanoma) | TGI (A498 renal) | TGI (HOP-18 NSCLC)
inactive: GI50 (LXFL 529 NSCLC) > 100 µM | GI50 (U251 CNS) > 100 µM | GI50 (LOX IMVI melanoma) > 100 µM | GI50 (DMS 273 small cell lung) > 100 µM | GI50 (RXF 393 renal) > 100 µM | GI50 (HCC-2998 colon) > 100 µM | GI50 (SF-268 CNS) > 100 µM | GI50 (MALME-3M melanoma) > 100 µM | GI50 (EKVX NSCLC) > 100 µM | GI50 (786-0 renal) > 100 µM | GI50 (SNB-78 CNS) > 100 µM | GI50 (KM12 colon) > 100 µM | GI50 (MOLT-4 leukemia) > 100 µM | GI50 (OVCAR-8 ovarian) > 100 µM | GI50 (DMS 114 small cell lung) > 100 µM | GI50 (SW-620 colon) > 100 µM | GI50 (K-562 leukemia) > 100 µM | GI50 (HT29 colon) > 100 µM | GI50 (UACC-62 melanoma) > 100 µM | GI50 (SK-MEL-5 melanoma) > 100 µM | GI50 (HCT-116 colon) > 100 µM | GI50 (SK-MEL-28 melanoma) > 100 µM | GI50 (SF-539 CNS) > 100 µM | GI50 (SN12C renal) > 100 µM | GI50 (OVCAR-3 ovarian) > 100 µM | GI50 (IGROV1 ovarian) > 100 µM | GI50 (SNB-75 CNS) > 100 µM | GI50 (A549 NSCLC) > 100 µM | GI50 (SK-MEL-2 melanoma) > 100 µM | GI50 (COLO 205 colon) > 100 µM | GI50 (NCI-H460 lung) > 100 µM | GI50 (NCI-H23 lung) > 100 µM | GI50 (UO-31 renal) > 100 µM | GI50 (NCI-H322M lung) > 100 µM | GI50 (NCI-H522 lung) > 100 µM | GI50 (HOP-62 NSCLC) > 100 µM | GI50 (ACHN renal) > 100 µM | GI50 (HL-60(TB) leukemia) > 100 µM | GI50 (SR leukemia) > 100 µM | GI50 (SNB-19 CNS) > 100 µM | GI50 (OVCAR-4 ovarian) > 100 µM | GI50 (OVCAR-5 ovarian) > 100 µM | GI50 (HCT-15 colon) > 100 µM | GI50 (KM20L2 colon) > 100 µM | GI50 (CCRF-CEM leukemia) > 100 µM | GI50 (DLD-1 colon) > 100 µM | GI50 (SK-OV-3 ovarian) > 100 µM | GI50 (M19-MEL melanoma) > 100 µM | GI50 (M14 melanoma) > 100 µM | GI50 (A498 renal) > 100 µM | GI50 (HOP-18 NSCLC) > 100 µM

— PubChem BioAssay (NCI)
